AlphaSeq binding of Ab-95 light chain variants to a spike HR2 peptide

Target peptide (SARS-CoV-2 spike, HR2 region): PDVDLGDISGINAS

Ab-95 is the parent antibody, in scFv form: VH, then the linker GGGGSGGGGSGGGGS, then VL. The heavy chain is unchanged in all variants.
VH: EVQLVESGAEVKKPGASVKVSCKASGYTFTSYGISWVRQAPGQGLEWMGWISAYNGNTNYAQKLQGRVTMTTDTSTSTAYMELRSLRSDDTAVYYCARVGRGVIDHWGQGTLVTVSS
VL: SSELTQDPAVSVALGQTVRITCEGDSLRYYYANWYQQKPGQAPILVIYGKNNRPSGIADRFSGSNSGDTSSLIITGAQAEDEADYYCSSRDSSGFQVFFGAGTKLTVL

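The parent was found by panning a naive human phage display library on the peptide. AAYL52 was designed without a model: most single CDR substitutions and a random sample of double and triple ones. Affinity was read by AlphaSeq, a pooled yeast mating assay with surface-displayed partners. Pairs that bind mate more often; barcode pairs of the diploids are counted by sequencing. Scores were corrected for input abundance and mapped to Kd with protein pairs of known affinity run in the same pool. The assay was run in three technical replicates.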

The parent's light chain CDRs are EGDSLRYYYAN, GKNNRPS, SSRDSSGFQVF; each variant's own CDRs replace them letter for letter.
Affinities are written as log10 Kd with Kd in nM; a lower number is a better binder.
Averages over replicates are reported, and they cover detected replicates only.
A pair that was not seen in that replicate is written "n.d."; this usually means weak binding, but a binder can also be missed.
Nonspecific signal, from three strains lacking the peptide, appeared in 28% of pairings of library AAYL52, centred on 3.91 (5% of these signals below 2.90); values are not corrected for it. The control count says in how many pairings with the empty strains this scFv gave a signal, with their mean in brackets.

CDR-L1 | CDR-L2 | CDR-L3 | log10 Kd, replicates | mean, log10 nM | empty controls
EGDALRYYYAG | GKNMRPS | SSRDSSGFQVF | n.d. / n.d. / 3.86 | 3.86 | 1 of 9 (5.17)
EGDSLRFYYAN | GKDNRPS | SSRDSSYFQVF | 3.36 / 2.93 / n.d. | 3.14 | 4 of 9 (4.62)
EGDSRRYTYAN | GKHNRPS | SSRDSSGFQVF | n.d. / n.d. / n.d. | n.d. | 1 of 9 (3.06)
EGDSLRYYTAN | GKNNRPS | SSRVSSGFQVV | 3.54 / 3.70 / 3.76 | 3.67 | 1 of 9 (3.80)
EGDILRYYYAN | GKNIRPS | SIRDSSGFQVF | n.d. / n.d. / n.d. | n.d. | 0 of 9
EGDSLRSYYAN | GKNNRPD | SSRDSSGFQVR | 1.82 / 1.87 / 1.30 | 1.66 | 2 of 9 (4.43)
EGDSLWYYYAN | GKNNRPT | SSRDSSGFQVW | 2.90 / 3.24 / 2.59 | 2.91 | 3 of 9 (3.69)
EGDSLRGMYAN | GKNNRPS | SDRDSSGFQVF | 2.55 / 2.37 / 2.42 | 2.45 | 2 of 9 (3.32)
EGDSWRYHYAN | GKNNRPS | SARDSSGFQVF | 4.00 / 2.89 / n.d. | 3.45 | 3 of 9 (4.19)
EGDSLRKYIAN | GKNNRPS | SSRDSYGFQVF | 4.47 / n.d. / 3.35 | 3.91 | 1 of 9 (4.16)
EGDSLRYYYAN | GKNTRPS | SSDDYSGFQVF | 2.67 / 2.38 / 2.32 | 2.46 | 2 of 9 (3.58)
EGDSLRYYYAN | GKNNRRS | SSRDSSGFQVF | 2.70 / 2.45 / 2.54 | 2.56 | 0 of 9
EGDSLRYYYAN | GKNNRPS | SSRDSKGFQVF | 3.33 / 3.31 / 3.49 | 3.38 | 1 of 9 (3.32)
EGDSLRYYYAE | GKNNRPC | SNRDSSGFQVF | 3.82 / n.d. / n.d. | 3.82 | 0 of 9
EQDSLRYYYAN | GKNNRPS | STRDSSGFQVF | 3.65 / 3.28 / n.d. | 3.46 | 0 of 9
HGDSNRYYYAN | GKNNRPS | SSADSSGFQVF | 2.75 / 3.60 / n.d. | 3.17 | 2 of 9 (3.37)
EGDSLRYYYAN | GKNNRDS | SSIDSQGFQVF | 3.22 / 2.88 / 2.91 | 3.00 | 3 of 9 (3.63)
EGDSLRYYYAN | GKTNRWY | SSRDSSGFQVF | 4.91 / 4.24 / n.d. | 4.57 | 1 of 9 (5.55)
EGDSLRYYYAF | GKWNRPS | SSRDSSMFQVF | n.d. / n.d. / 3.99 | 3.99 | 1 of 9 (3.72)
EGDSLRYYSSN | GKNNRPS | SSRDSSGLQVF | 2.90 / 1.98 / 2.89 | 2.59 | 0 of 9
EGDSLRYSYAN | GKNNRPS | SSRDSSGCQVF | 4.29 / n.d. / 2.71 | 3.50 | 3 of 9 (4.14)
EGDNLRYYYAN | GSQNRPS | SSRDSSGFQVF | n.d. / 4.13 / n.d. | 4.13 | 0 of 9
EGDSLRYYYAN | GKNNRGS | SSRDSSGFQVL | 3.03 / 3.01 / 3.69 | 3.24 | 2 of 9 (3.98)
EGDSLRYYYAN | HKNNRPS | SSRWSSGFQVY | n.d. / 4.34 / n.d. | 4.34 | 2 of 9 (4.03)
EGDSLRYYYPN | GKNNRPS | SSRDSSVFQVV | 3.67 / 2.52 / 2.53 | 2.91 | 1 of 9 (3.46)
EGDSYRYYYAN | GKNNRPS | SSRDSSGFQVD | 2.91 / 2.88 / n.d. | 2.89 | 0 of 9
EGDSLRYYYAN | GENNRMS | SSRDSSGFQWF | 2.11 / 2.80 / 1.85 | 2.25 | 3 of 9 (3.57)
KGDSLRYSYAN | GKNNRPS | SSRDSSGFQVF | 1.17 / 1.06 / 0.57 | 0.93 | 5 of 9 (3.94)
EGDSFRYYYAN | GKNNRPS | SSRHSSRFQVF | 5.23 / n.d. / 4.10 | 4.66 | 4 of 9 (3.92)
EGDSLRYYYAN | GRNNRPP | SSRDDSGFQVF | n.d. / 5.32 / 3.00 | 4.16 | 3 of 9 (4.28)
EGNLLRYYYAN | GKNNRPS | SSRDSSGFQVF | n.d. / n.d. / n.d. | n.d. | 3 of 9 (3.57)
EGDSLRYDYAN | DKNNRPS | SSRDSSGFDVF | 4.77 / n.d. / n.d. | 4.77 | 1 of 9 (3.52)
EGDSLRYYYAN | LKNNRPS | SSRVSSGFQVF | n.d. / 4.11 / n.d. | 4.11 | 2 of 9 (3.57)
EGCSLRYYDAN | GKNNRPS | SSRRSSGFQVF | 3.52 / 4.37 / 4.30 | 4.06 | 2 of 9 (4.16)
EHDSLRYYYAN | GKNNRPS | SRRDHSGFQVF | 3.26 / 3.69 / 2.92 | 3.29 | 3 of 9 (3.05)
KGDSNRYYYAN | GKNNRCS | SSRDSSGFQVF | 2.47 / 3.44 / 1.89 | 2.60 | 0 of 9
EGDSLRYYYAN | AKENRPS | SSRDSSGFGVF | 5.31 / 4.63 / 3.80 | 4.58 | 4 of 9 (3.46)
EGDSLRYYYTN | GKNNRPS | SSRDSSGFQVY | 2.38 / 2.40 / 2.49 | 2.43 | 1 of 9 (3.42)
EGDSLRYYYAN | GKNNYPG | SSRHSSGFQVF | 4.79 / n.d. / n.d. | 4.79 | 1 of 9 (3.52)
EGCSTRYNYAN | GKNNRPS | SSRDSSGFQVF | 2.02 / 1.99 / 1.89 | 1.97 | 4 of 9 (3.54)
EGDSLRYYYAN | GKNNWPS | SSRDSIGFQVF | n.d. / n.d. / n.d. | n.d. | 1 of 9 (4.78)
EWDSLGYYYAN | GKNNRPS | TSRDSSGFQVF | 4.13 / n.d. / n.d. | 4.13 | 2 of 9 (4.48)
TGDSLRYYYAN | GGNNRPS | SSRDSSGFQVP | 1.88 / 1.96 / 1.60 | 1.81 | 5 of 9 (4.50)
EGDSLHYQYAN | GKNNRPS | SSRDSSGFQVD | 1.63 / 1.52 / 1.32 | 1.49 | 3 of 9 (4.11)
EGDSKRYYYAC | GKNNRPS | WSRDSSGFQVF | 5.63 / 3.76 / 4.76 | 4.72 | 3 of 9 (4.12)
EGDSLRYYEAN | GKNNKPS | SSRDSTGFQVF | 1.32 / 1.43 / 0.70 | 1.15 | 1 of 9 (4.10)
EGDSLRYYNAN | GKNNRPS | LSRDSSGFQVF | 2.73 / 2.35 / 2.70 | 2.59 | 1 of 9 (2.18)
EWDSGRRYYAN | GKNNRPS | SSRDSSGFQVF | 2.87 / 2.79 / 2.83 | 2.83 | 3 of 9 (3.93)

Repeated from above, the 4 best binders with a signal in all replicates:

CDR-L1 | CDR-L2 | CDR-L3 | log10 Kd, replicates | mean, log10 nM | empty controls
KGDSLRYSYAN | GKNNRPS | SSRDSSGFQVF | 1.17 / 1.06 / 0.57 | 0.93 | 5 of 9 (3.94)
EGDSLRYYEAN | GKNNKPS | SSRDSTGFQVF | 1.32 / 1.43 / 0.70 | 1.15 | 1 of 9 (4.10)
EGDSLHYQYAN | GKNNRPS | SSRDSSGFQVD | 1.63 / 1.52 / 1.32 | 1.49 | 3 of 9 (4.11)
EGDSLRSYYAN | GKNNRPD | SSRDSSGFQVR | 1.82 / 1.87 / 1.30 | 1.66 | 2 of 9 (4.43)

Data: MIT Lincoln Laboratory AlphaSeq set, Engelhart et al. 2022, doi:10.1038/s41597-022-01779-4, as distributed in FLAb.